Laboratory results taken from US20130203765A1, “DEUTERATED PYRROLOPYRIMIDINE COMPOUNDS AS INHIBITORS OF CDK4/6” (Novartis AG, priority 2010, published 2013).

Protein sequences, listed by entry. Tags and fused reporters are not part of them. Lines headed by an entry give the natural chain unless they say otherwise; changes in a name come on top.
UniProt P11802: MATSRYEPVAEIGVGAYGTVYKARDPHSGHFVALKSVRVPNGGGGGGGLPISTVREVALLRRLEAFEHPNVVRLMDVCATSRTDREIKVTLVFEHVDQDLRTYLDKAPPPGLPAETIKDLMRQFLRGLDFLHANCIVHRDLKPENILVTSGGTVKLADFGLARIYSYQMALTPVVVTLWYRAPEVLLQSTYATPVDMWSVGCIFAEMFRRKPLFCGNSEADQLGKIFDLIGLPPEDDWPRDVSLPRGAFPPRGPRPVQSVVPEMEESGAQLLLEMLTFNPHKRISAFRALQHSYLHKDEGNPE

Target: T1, CDK4/cyclin D1 (Homo sapiens, UniProt P11802)
T1 construct: His6 (N); made in house; host or cells: Sf21 insect cells (baculovirus)
Experiment: CDK4/cyclin D1 enzymatic activity assay (Lance TR-FRET)
Assay type: biochemical
Conditions: 0.3 nM CDK4/cyclin D1, 175 nM pRb152, 3 μM ATP, 60 min
Protocol: The same assay was used for IC50 determination of small molecule inhibitors. In general, the kinase reactions were carried out in 30 μL volumes in the reaction solution containing the following: 2 uL compound (in 20% DMSO), 18 uL CDK4/cyclin D1 in Assay Buffer (50 mM HEPES, pH 7.5, 5 mM MgCl2, 2 mM MnCl2, 1 mM DTT, 0.05% BSA, 0.02% Tween-20), 10 uL of the mixture of pRb152 and ATP. […] All reactions were run at room temperature in 384-well white flat-bottom OptiPlates (Perkin Elmer, Cat. No. 6007290) for 60 min then were quenched by the addition of 10 μL of 120 mM EDTA. The signals were captured by the addition of 40 μL of the Detection Solution containing the following: Detection Buffer (50 mM HEPES, pH 7.5, 30 mM EDTA, 0.1% Triton x-100, 0.05% BSA), 70 ng/mL anti-phospho-pRb(S780) (Cell Signaling Technology, Cat. No. 9307S), 1 nM Lance Eu-W1024-Rabbit anti-IgG (Perkin Elmer, Cat. No. AD0082), and 20 nM SureLight™ Allophycocyanin-Streptavidin (Perkin Elmer, Cat. No. CR130-100). The resulted solutions were incubated at room temperature for 2 hours before read on the Evision Multilabel Reader (Perkin Elmer, Envision 2102-0010).

## 7-cyclopentyl-2-(5-piperzin-1-yl-pyridin-2-ylamino)-7H-pyrrolo[2,3-d]pyrimidine-6-carboxylic acid dimethylamide-d5 [Example 1]
  IC50: 25 nM
